Rows were chosen to be rich in hits. Some 2.3% of all compounds tested hit in one or more screens of this group.
miR-21 reporter = miR-21 reporter, rising signal; HeLa miR-21 FLuc reporter, luciferase, 48 h; Potency, µM (titrated, usually from 38.3 µM), without a hit: top-dose reporter change, positive = more light; AID 2288; 340,000 tested, under 10 active; active = well fitted rising curve with a large enough effect; inconclusive = small, poorly fitted or top-dose-only effect; inactive = no such curve, though single readings can be large or run the other way;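 further: % of control where 0% means no effect; miR-21 action dims this reporter so a rising signal means less miR-21 action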
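Luminescence from a firefly luciferase reporter carrying a miR-21 binding site downstream, stably expressed under a CMV promoter in HeLa cells that make miR-21 endogenously, reports miRNA modulation after 48 h compound exposure up to approximately 40uM final.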
Nrf2 activator = Nrf2 pathway activation | AID 624171 | 0.31% of 410,000 active | AREc32 ARE-luciferase reporter (MCF7-derived line), luminescence, 24 h | Potency, µM (top dose mostly 46.1 µM), inactives show top-dose activation, usual class: activators; also: potency is read from the fitted curve at half-maximal effect; % of control where 0% means no effect; nearly all actives have a fitted effect of over 65% in size
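AREc32 cells carrying an ARE-driven firefly luciferase reporter were seeded at 1000 cells/well in OPTI-MEM with 5% FBS, then exposed to compound for 24 hr at 37 deg C. Luminescence was read with Steady-Glo after 30 min at RT.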
Glioma ERSR ind = inducers of ER stress response in human glioma cells; U87-MG GRP78 promoter luciferase reporter, 16 h; Potency, µM, inactives show top-dose activation, hits mostly activators; 0.02% of 420,000 active; also: potency is read from the fitted curve at half-maximal effect; series mostly up to about 76 µM; % of control where 0% means no effect; nearly all actives have a fitted effect of over 35% in size
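Stably transfected U87-MG glioma cells carrying a GRP78-based luciferase sensor; 16 h compound incubation. Luminescence end-point read 10 min after Bright-Glo addition at room temperature.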
Mito fusion act = blocks mitochondrial division or promotes mitochondrial fusion; S. cerevisiae fusion-defective mutant growth rescue, CellTiterGlo 48 h; Potency, µM (highest dose often 46.1 µM), for inactives: at the highest dose growth rescue (activation), hits mostly activators; 0.23% of 320,000 active; also: potency is read from the fitted curve at half-maximal effect; % of control where 0% means no effect; nearly all actives have a fitted effect of over 45% in size
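Temperature-sensitive fusion-defective S. cerevisiae (e.g. fzo1-1, mgm1-5) were grown with compound in YPEG medium (3% ethanol, 3% glycerol) for 48 hours at 37C. Growth rescue was measured as viability by CellTiterGlo luminescence after 10 minutes at ambient.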
Nrf2 inh = inhibitors of Nrf2 signaling | A549 ARE-Fluc reporter, luciferase luminescence, 18-24 h | Potency, µM (doses to about 46 µM), for inactives: top-dose activity change, negative = inhibition, actives largely listed as inhibitors | 2.1% of 360,000 active | AID 504444; also: potency is read from the fitted curve at half-maximal effect; % is scaled to controls: 0 for no effect and ±100 for the full control effect; nearly all actives have a fitted effect of over 60% in size
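A549 ARE_Fluc cells (5000/well, 5% FBS OPTI-MEM) pre-incubated 2 h, then treated with compounds 18-24 h at 37C/5% CO2 in concentration-response. CellTiter-Fluor viability read first; BugLite luciferase luminescence after 15 min at room temperature gives Nrf2 activity.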
A549 viability = counter-screen for Nrf2 inhibitors: cytotoxicity in A549 cells; A549 ARE-Fluc cells, CellTiter-Fluor viability, 18-24 h; Potency, µM (series often up to 46 µM), without a hit: at the highest dose activity change, negative = cytotoxicity, most hits filed as inhibitors; 0.16% of 390,000 active; also: potency is read from the fitted curve at half-maximal effect; % is scaled to controls: 0 for no effect and ±100 for the full control effect
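A549 ARE-Fluc cells in 5% FBS OPTI-MEM, 5000 cells/well, rested 2 h then exposed to compounds in concentration-response for 18-24 h at 37 °C. Viability by CellTiter-Fluor fluorescence (Ex 405/Em 525) after 30 min; luciferase luminescence (BugLite, 15 min, RT) read afterwards.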
An asterisk follows results filed as active; ? = inconclusive; . = no result; [ ] = another dose, or the depositor's remark. Unless noted, calls follow the shape of the dose curve; as a rule, active = well fitted curve in the direction sought with a large enough effect; inconclusive = small, poorly fitted or top-dose-only effect, or another doubt; inactive = no such curve, though single readings can be large; an effect the other way counts as inactive or inconclusive.

item | molecule | miR-21 reporter | Nrf2 activator | Glioma ERSR ind
1 | Cc1ccc(S(=O)(=O)Cc2ccc(C(=O)OCc3ccccc3)cc2)cc1 | -1% | 0% | -2%
2 | COC(=O)c1c[nH]c2c1-c1cc(C(=O)OCc3ccccc3)n(S(=O)(=O)c3ccc(C)cc3)c1C(=O)C2=O | . | -2% | -8%
3 | CCn1c(=O)c2cc(C(=O)NC3CCCCCC3)sc2c2ccccc21 | 9% | 1% | -1%
4 | Cn1c(=O)c2cc(C(=O)NC3CCCCCC3)sc2c2ccccc21 | -2% | 8% | -1%
5 | O=C(Nc1ccc2[nH]c(=O)[nH]c2c1)c1cccc([N+](=O)[O-])c1 | 0% | 0% | -1%
6 | CC(=O)C1CCC2C3CCC4=CC(=O)CCC4(C)C3(Br)C(=O)CC12C (stereo not drawn) | . | 1% | -3%
7 | CC(=O)C1CCC2C3CCC4=CC(=O)CC[C@]4(C)[C@@]3(F)C(O)C[C@]12C (stereo partly drawn) | -17% | 0% | -4%
8 | CCCCn1cnc2c(SCc3ccc(Br)cc3)nc(N)nc21 | . | 5% | -6%
9 | CCn1c(CNc2ccc(Cl)cc2)nnc1SCc1ccc(C)cc1 | -2% | 0% | -9%
10 | CCn1c(CNc2ccc(Cl)cc2)nnc1SCc1ccc(Cl)cc1 | 2% | 0% | -2%
11 | N#Cc1c[nH]n2c(NC3CCCCC3)c(-c3cccc(Cl)c3)nc12 | 3% | 5% | 1%
12 | Cc1cc(C)c2oc(-c3cccc(NC(=O)c4ccc(Br)o4)c3)nc2c1 | -6% | 8% | 0%

item | Mito fusion act | Nrf2 inh | A549 viability
1 | -5% | 15% | -7%
2 | . | 4.1µM* | 4.1µM*
3 | . | ? | 5%
4 | . | 18µM* | ?
5 | -1% | 0% | 3%
6 | . | 1% | -4%
7 | 16% | 2.9µM* | -4%
8 | . | 18µM* | -19%
9 | ? | -11% | 0%
10 | ? | 23µM* | ?
11 | . | 9% | -1%
12 | . | 3% | 3%

The list continues:
item | molecule | miR-21 reporter | Nrf2 activator | Glioma ERSR ind
13 | O=C(Nc1cccc(-c2nnc(-c3ccccc3)o2)c1)c1ccc(Br)o1 | -11% | 4% | -1%
14 | COc1ccc2cc1Oc1ccc(cc1)CC1c3cc(c(OC)cc3CCN1C)Oc1c(OC)c(OC)c(OC)c3c1C(C2)N(C)CC3 (stereo not drawn) | . | . | -2%
15 | O=[N+]([O-])c1cc(-c2nc(-c3ccncc3)no2)ccc1Cl | -6% | 0% | 1%
16 | FC(F)(F)c1cccc(-c2nc(-c3ccncc3)no2)c1 | -8% | 11µM* | -3%
17 | Cc1c(-c2nc(-c3ccncc3)no2)cccc1[N+](=O)[O-] | -18% | 11µM* | 0%
18 | c1ccc2c(-c3nc(-c4ccncc4)no3)cccc2c1 | -24% | 25% | 4%
19 | c1ccc(-c2noc(-c3cccc4ccccc34)n2)cc1 | -53% | 1.6µM* | -3%
20 | Clc1ccc(Br)cc1-c1nc(-c2ccncc2)no1 | -3% | 4µM* | 6%
21 | O=S(=O)(NCc1ccc2c(c1)OCO2)c1cccc(F)c1 | -7% | 0% | -1%
22 | CSCCC(NC(=O)c1cc(C(C)(C)C)oc1C)C(=O)O (stereo not drawn) | 0% | 0% | -2%
23 | Cc1cccc(-c2nc(-c3ccncc3)no2)c1 | -46% | 13µM* | -6%
24 | Fc1ccccc1-c1nc(-c2ccncc2)no1 | -44% | 13µM* | -1%

item | Mito fusion act | Nrf2 inh | A549 viability
13 | ? | 23µM* | ?
14 | . | . | .
15 | -13% | -19% | -10%
16 | -21% | ? | 0%
17 | 8% | 12% | 13%
18 | -1% | ? | 19%
19 | 7% | ? | 11%
20 | -10% | ? | 0%
21 | 2% | 5% | -2%
22 | 1% | -1% | 1%
23 | -1% | ? | 2%
24 | -6% | ? | 2%

(continued)
item | molecule | miR-21 reporter | Nrf2 activator | Glioma ERSR ind
25 | Cc1ccc(-c2nc(-c3ccncc3)no2)cc1 | -66% | 4% | -10%
26 | Brc1cccc(-c2nc(-c3ccncc3)no2)c1 | -41% | 11µM* | 1%
27 | Fc1ccccc1-c1nc(-c2ccccc2)no1 | -67% | ? | -6%
28 | Cc1cc(C)cc(-c2nc(-c3ccncc3)no2)c1 | -46% | 0% | 0%
29 | COC(=O)c1ccc(NC(=O)C2CCCN2C(=O)Nc2cccc(C(C)=O)c2)cc1 (stereo not drawn) | -1% | 0% | -7%
30 | O=C(c1cc2ccccc2oc1=O)N(c1ccccc1)C1C=CS(=O)(=O)C1 (stereo not drawn) | 5% | ? | 1%
31 | COc1ccc(N(C(=O)c2cc3ccccc3oc2=O)C2C=CS(=O)(=O)C2)cc1 (stereo not drawn) | -6% | 18µM* | 1%
32 | O=C(N/N=C\c1ccncc1)c1ccc(Br)s1 | -7% | 6% | -7%
33 | CCn1cc2nc(SCC(=O)Nc3ccc(F)cc3F)n(Cc3ccccc3)c(=O)c2n1 | 9% | 3% | -6%
34 | COc1ccc(S(=O)(=O)N2CCCCC2)cc1NC(=O)c1[nH]c(C)c(C(C)=O)c1C | . | 11% | -1%
35 | COc1ccc(NC(=O)CN2CCCN(S(=O)(=O)c3ccc(Br)cc3)CC2)c(OC)c1 | ? | 3% | -6%
36 | Cc1ccc(S(=O)(=O)N2CCCCC2)cc1NC(=O)CSc1nncn1-c1ccccc1 | -2% | 2% | 4%

item | Mito fusion act | Nrf2 inh | A549 viability
25 | -15% | ? | 0%
26 | -3% | . | 9%
27 | -1% | ? | 13%
28 | 0% | ? | 1%
29 | 1% | 8% | -8%
30 | 2% | 2% | -1%
31 | -6% | 10% | 2%
32 | 0% | -18% | 0%
33 | -1% | 1% | -1%
34 | . | 18µM* | -1%
35 | . | 21µM* | 18µM*
36 | 0% | 18µM* | -2%

The list continues.
item | molecule | miR-21 reporter | Nrf2 activator | Glioma ERSR ind
37 | COc1ccc(-n2cnnc2SCC(=O)Nc2cc(S(=O)(=O)N3CCCCC3)ccc2C)cc1 | -5% | 3% | -5%
38 | COc1ccc(NC(=O)CN2CCCN(S(=O)(=O)c3ccc(F)cc3)CC2)c(OC)c1 | 1% | -1% | -1%
39 | COc1ccc(S(=O)(=O)N2CCCCC2)cc1NCC(=O)Nc1ccc(C)cc1 | 22% | 0% | -2%
40 | Cc1cc(C)cc(NC(=S)N2CCC(C(=O)c3ccc(F)cc3)CC2)c1 | . | 0% | -2%
41 | COc1ccc(OC)c(CNC(=O)CCCn2ccc3cc(S(=O)(=O)N4CCCC4)ccc32)c1 | 22% | 1% | -5%
42 | COc1cccc(CNC(=O)CCCn2ccc3cc(S(=O)(=O)N4CCCC4)ccc32)c1 | 20% | 0% | -1%
43 | CN(CC(=O)Nc1ccc(F)cc1)c1ccc(S(=O)(=O)N2CCCCC2)cc1[N+](=O)[O-] | 15% | 0%[9.22 µM] | -5%
44 | Cc1ccc(CNC(=O)Cn2ccc3cc(S(=O)(=O)N4CCCCCC4)ccc32)cc1 | 8% | 1% | 0%

item | Mito fusion act | Nrf2 inh | A549 viability
37 | -1% | ? | -12%
38 | 29% | ? | -4%
39 | 10% | 16µM* | -9%
40 | . | 6% | 1%
41 | -2% | 15µM* | ?
42 | 4% | -4% | -2%
43 | 15% | 13µM* | -7%
44 | -4% | 15µM* | ?

Reprinted at random: four records from the list, in no set order.
item | molecule | miR-21 reporter | Nrf2 activator | Glioma ERSR ind
44 | Cc1ccc(CNC(=O)Cn2ccc3cc(S(=O)(=O)N4CCCCCC4)ccc32)cc1 | 8% | 1% | 0%
41 | COc1ccc(OC)c(CNC(=O)CCCn2ccc3cc(S(=O)(=O)N4CCCC4)ccc32)c1 | 22% | 1% | -5%
37 | COc1ccc(-n2cnnc2SCC(=O)Nc2cc(S(=O)(=O)N3CCCCC3)ccc2C)cc1 | -5% | 3% | -5%
43 | CN(CC(=O)Nc1ccc(F)cc1)c1ccc(S(=O)(=O)N2CCCCC2)cc1[N+](=O)[O-] | 15% | 0%[9.22 µM] | -5%

item | Mito fusion act | Nrf2 inh | A549 viability
44 | -4% | 15µM* | ?
41 | -2% | 15µM* | ?
37 | -1% | ? | -12%
43 | 15% | 13µM* | -7%

Screens as filed in PubChem BioAssay.
